Source: PMC5805504 (Oncotarget, 2017)
Read-outs that look alike come from different tables or passages of the source.

Legend:
Mv1Lu cells = experiment: cells; conditions: read-out: IC50 (SE), Mv1Lu proliferation
[1] = system: NIH3T3 fibroblasts (PDGF stimulated proliferation); experiment: cells; conditions: Mus musculus, NIH3T3, read-out: IC50 (SE), NIH3T3 proliferation: PDGF-stimulated
[2] = system: NIH3T3 fibroblasts (TGFβ1 induced proliferation); conditions: read-out: IC50 (SE), NIH3T3 proliferation: TGF-β-stimulated
[3] = system: pSMAD in Calu6 and EMT6-LM2 tumors; experiment: PK/PD profile from Calu6 and EMT6-LM2 in vivo target inhibition studies (statements not split by model); parameters: species or system mice; conditions: from dose response analysis; Cmax target plasma concentration
[4] = system: NIH3T3 fibroblasts (TGFβ1 induced proliferation); experiment: cells; conditions: Mus musculus, NIH3T3, read-out: IC50 (SE), NIH3T3 proliferation: TGF-β-stimulated
pSMAD in Calu6 tumors = experiment: animal or person; conditions: Mus musculus, Calu-6, po, read-out: TEC50, total effective (plasma) concentration to inhibit 50% pSMAD
pSMAD in EMT6-LM2 tumors = experiment: animal or person; conditions: Mus musculus, po, read-out: TEC50, total effective (plasma) concentration to inhibit 50% pSMAD
[5] = system: NIH3T3 fibroblasts (bFGF stimulated proliferation); experiment: cells; conditions: Mus musculus, NIH3T3, read-out: IC50 (SE), NIH3T3 proliferation: bFGF-stimulated

What does the source list for `Cc1cccc(-c2nn3c(c2-c2ccnc4ccc(C(N)=O)cc24)CCC3)n1.O` [galunisertib, 4-[2-(6-methylpyridin-2-yl)-5,6-dihydro-4H-pyrrolo[1,2-b]pyrazol-3-yl]quinoline-6-carboxamide monohydrate]?
IC50 (Mv1Lu cells): 560 nM; IC50 [1]: > 20000 nM; IC50 [2]: 400 nM; estimated plasma concentration for maximal target inhibition in vivo [3]: 3 to 6 µM; IC50 [4]: 396 nM; EC50 (pSMAD in Calu6 tumors): 300 nM; EC50 (pSMAD in EMT6-LM2 tumors): 340 nM; IC50 [5]: > 20000 nM
